# Biological target: Mu-type opioid receptor (Homo sapiens, UniProt P35372)
# Chains of the proteins cited; added tags and fusions are not shown.
# UniProt P35372, whole entry: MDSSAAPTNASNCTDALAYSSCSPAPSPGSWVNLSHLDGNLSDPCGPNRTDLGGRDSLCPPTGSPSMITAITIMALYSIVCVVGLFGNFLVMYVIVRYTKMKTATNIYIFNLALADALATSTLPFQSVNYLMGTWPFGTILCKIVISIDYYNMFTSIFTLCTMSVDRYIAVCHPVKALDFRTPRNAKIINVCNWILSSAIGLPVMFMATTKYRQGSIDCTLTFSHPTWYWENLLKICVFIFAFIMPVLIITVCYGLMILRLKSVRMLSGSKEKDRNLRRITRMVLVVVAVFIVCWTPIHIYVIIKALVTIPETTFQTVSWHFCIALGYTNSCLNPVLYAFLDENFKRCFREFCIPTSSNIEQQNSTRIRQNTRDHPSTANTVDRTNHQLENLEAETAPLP
# Assay: Agonist activity at MOR (unknown origin) expressed in CHO cell membranes assessed as stimulation of [35S]GTPgammaS binding measured after 60 mins by liquid scintillation counting analysis
smiles,measurement,value
CN(C)C[C@H]1CCCC[C@]1(O)c1cccc(O)c1 [O-DESMETHYL TRAMADOL],EC50,245 nM

# From ChEMBL document CHEMBL5226314, “Discovery, Structure-Activity Relationship, and Mechanistic Studies of 1-((3R,4S)-3-((Dimethylamino)methyl)-4-hydroxy-4-(3-methoxyphenyl)piperidin-1-yl)-2-(2,4,5-trifluorophenyl)ethan-1-one as a Novel Potent Analgesic” (J Med Chem, 2021)
